Measured values from patent publication US8653298B2, “Biphenyl acetate, preparation and uses thereof” (Shijiazhuang Yiling Pharmaceutical Co., Ltd., priority 2006, dated 2014).
Counter-ions that a name gives are not always drawn.

Test system: 2% red blood cell's suspending liquid
Experiment: hemolytic testing outside the body (visual)
Type: cell-based, rabbit
Settings: high concentration 1.88 mg/ml

O=C(O)Cc1ccc(-c2ccccc2)cc1 [biphenyl acetic ammonia butantriol salt]
blood absorbing reaction within 3 hours: no blood absorbing reaction
